In assay [1] the target is Short transient receptor potential channel 4 (Mus musculus) (UniProt Q9QUQ5). Nature of the assay: mouse TRPC4 channel activators, dose response, cell-based, HEK293 TRPC4/mu-opioid, Fluo-4 calcium (AID 434937;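 active means primary screen activator hit with a dose response curve and TRPC4 channel activation at any tested dose; inactive means no activation, no dose response, or not a primary hit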). The settings on record: HEK293 TRPC4 cells, Fluo-4 calcium fluorescence ratio; at 20 µM (top of the series).
In assay [2] the target is Short transient receptor potential channel 6 (Mus musculus) (UniProt Q61143). Nature of the assay: inhibition of mouse TRPC6 channel, confirmation, selectivity assay for TRPC4 inhibitor project, cell-based, HEK293, membrane potential dye, duplicate (AID 434948;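 active means active in primary screen and both duplicates, each dropping signal beyond three positive-control SD with fluorescence still positive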). The settings on record: HEK293 TRPC6, membrane potential dye fluorescence, at 10 µM, stimulated with maximal-effect acetylcholine; hits give high values. In a few lines: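 Test system: TRPC6-expressing HEK293 cells / Probe or stimulus: acetylcholine at maximal (ECmax) concentration, added after compound / Schedule: dye 45 min RT, compound 110 s, agonist read 110 s / Technique: membrane potential dye fluorescence, kinetic read / Read-out basis: control-normalized integrated fluorescence ratio / Repeats: two replicates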

Amino acid sequences for entries named in this document (tags omitted).
UniProt Q9QUQ5, whole entry: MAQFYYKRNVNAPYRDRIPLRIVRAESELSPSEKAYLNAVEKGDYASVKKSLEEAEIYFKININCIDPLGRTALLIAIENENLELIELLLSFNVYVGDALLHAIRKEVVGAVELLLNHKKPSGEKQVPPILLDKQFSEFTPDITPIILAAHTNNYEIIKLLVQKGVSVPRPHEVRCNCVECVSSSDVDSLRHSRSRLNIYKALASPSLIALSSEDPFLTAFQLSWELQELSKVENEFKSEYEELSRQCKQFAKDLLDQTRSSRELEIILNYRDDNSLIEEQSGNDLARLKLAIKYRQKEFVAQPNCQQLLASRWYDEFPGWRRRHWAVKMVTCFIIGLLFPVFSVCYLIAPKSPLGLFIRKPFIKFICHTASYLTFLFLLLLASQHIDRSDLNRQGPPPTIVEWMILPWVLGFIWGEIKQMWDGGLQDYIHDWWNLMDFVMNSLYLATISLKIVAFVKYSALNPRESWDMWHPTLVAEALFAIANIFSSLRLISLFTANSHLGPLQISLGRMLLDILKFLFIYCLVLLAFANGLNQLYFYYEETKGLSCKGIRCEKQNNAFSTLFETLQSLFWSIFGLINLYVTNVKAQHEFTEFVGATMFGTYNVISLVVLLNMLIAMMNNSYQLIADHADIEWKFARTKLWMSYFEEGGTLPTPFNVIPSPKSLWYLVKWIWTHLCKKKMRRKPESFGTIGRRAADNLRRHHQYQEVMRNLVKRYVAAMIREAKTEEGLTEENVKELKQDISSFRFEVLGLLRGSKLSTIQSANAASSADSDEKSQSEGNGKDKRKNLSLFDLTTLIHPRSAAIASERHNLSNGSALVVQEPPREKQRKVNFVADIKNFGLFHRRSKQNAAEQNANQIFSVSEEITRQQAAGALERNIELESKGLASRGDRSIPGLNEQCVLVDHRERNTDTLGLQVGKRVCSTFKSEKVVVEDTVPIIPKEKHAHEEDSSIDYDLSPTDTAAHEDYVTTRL
UniProt Q61143, whole entry: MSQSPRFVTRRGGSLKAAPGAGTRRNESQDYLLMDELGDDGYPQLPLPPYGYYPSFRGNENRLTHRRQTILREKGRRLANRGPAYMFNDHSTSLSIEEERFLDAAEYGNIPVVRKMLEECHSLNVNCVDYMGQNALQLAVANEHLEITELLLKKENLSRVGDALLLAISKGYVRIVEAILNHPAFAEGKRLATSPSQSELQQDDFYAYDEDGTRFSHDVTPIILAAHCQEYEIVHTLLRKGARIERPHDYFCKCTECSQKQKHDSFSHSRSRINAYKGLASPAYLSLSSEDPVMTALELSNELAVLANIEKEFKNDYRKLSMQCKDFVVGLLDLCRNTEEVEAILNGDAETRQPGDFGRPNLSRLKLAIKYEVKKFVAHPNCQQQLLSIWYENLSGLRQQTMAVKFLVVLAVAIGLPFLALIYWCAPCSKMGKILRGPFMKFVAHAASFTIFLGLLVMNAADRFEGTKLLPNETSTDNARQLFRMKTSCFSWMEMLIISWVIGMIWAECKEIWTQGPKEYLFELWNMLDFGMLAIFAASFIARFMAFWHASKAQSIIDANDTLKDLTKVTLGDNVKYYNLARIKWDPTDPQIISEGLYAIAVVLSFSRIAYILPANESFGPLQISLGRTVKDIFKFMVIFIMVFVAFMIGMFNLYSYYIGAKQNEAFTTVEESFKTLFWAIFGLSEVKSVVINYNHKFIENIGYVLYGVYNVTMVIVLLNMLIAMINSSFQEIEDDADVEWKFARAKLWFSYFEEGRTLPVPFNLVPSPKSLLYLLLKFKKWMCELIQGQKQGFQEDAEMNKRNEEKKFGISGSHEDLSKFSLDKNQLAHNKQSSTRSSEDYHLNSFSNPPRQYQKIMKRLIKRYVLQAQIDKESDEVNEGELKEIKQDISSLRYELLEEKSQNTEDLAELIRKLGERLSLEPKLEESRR

Assay [3] shares this target. As to the kind of experiment: TRPC6 potentiation by TRPC4 potentiator hits, confirmation, selectivity assay for TRPC4 potentiator project, HEK293 cells, membrane potential dye, duplicate (AID 434952;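 active means compound raising the membrane signal above positive-control mean plus 3 SD in both repeats, and a primary screen hit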). The settings on record: HEK293 TRPC6, membrane potential dye fluorescence; at 10 µM; maximal acetylcholine added after compound.
Assay [4] is described as follows: calcium flux enhancement in mu-opioid HEK293 cells, confirmation, counter-screen for TRPC4 allosteric potentiator project, cell-based, HEK293 mu-opioid receptor line (AID 449724). The settings on record: Fluo-4 calcium flux, at 10 µM, compound added before EC20 DAMGO stimulus. On the technique in general: Calcium flux is commonly read through the fluorescence of an indicator in the cells.

Assay [5] can be described thus: modulation of acetylcholine-evoked membrane potential, parental HEK293, confirmation, counter-screen for TRPC6 modulator project, cell-based, second counter-screen, membrane potential dye (AID 488926;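 active means membrane potential signal drops by more than 5 SD from the mean control signal, in both duplicate plates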;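 further: plate controls were acetylcholine ECmax control wells for no effect and buffer only wells for full effect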). The settings on record: parental HEK293, membrane potential dye fluorescence; at 10 µM; hits give high values; after compound, maximal acetylcholine stimulation. In general terms: Counterscreens check selectivity or assay interference.

The text below walks through data of PubChem BioAssay.

The list shows a part of the results, in another mix than the full data. For some assays here: Entries with a potency or affinity are not part of this list. Active and inactive are the calls of the source.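 How the source made its calls, unless noted: active means calcium signal rise more than 3 SD above the low-dose agonist control mean, in both duplicate plates and the primary screen; inactive means the rest.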

For the molecule `CCN(CC)CCCOC(=O)C(O)(c1ccccc1)c1ccccc1`, the activation ratio in assay [1] was inactive: 37.8. The result in assay [2], in assay [3] and in assay [4] was inactive. Also, the inhibition in assay [5] was active: 116%.

Turning to `CN(C)CCOC(=O)C(O)(c1ccccc1)C1CCCC1` (stereo unspecified), in assay [1], the activation ratio is inactive: 3.43. Further, in assay [2], the inhibition was active: 5%. In addition, the outcome in assay [3] and in assay [4] was inactive.

`CCN(CC)CC(O)COC(=O)C(O)(c1ccccc1)C1CCCCC1` (stereo unspecified): the inhibition in assay [5] was active: 122%.

For `CN(C)C1(CNC(=O)c2ccc(Cl)c(S(N)(=O)=O)c2)CCCCC1`, the result in assay [4] was inactive.

Broadly, the inhibition is the relative decrease from the control value, in per cent.
